Experimental data published in US10450421B2, “Synthesis of multiarm poly[(R)-3-hydroxybutyrate] and its derivatives” (AGENCY FOR SCIENCE, TECHNOLOGY AND RESEARCH, priority 2015, dated 2019).

How the values were obtained:
[1] = tested on: S. aureus; assay: Antimicrobial test, MIC against S. aureus; format: cell-based; details: Gram-positive bacteria S. aureus (n = 2)
Experimental: (§1) The solutions based on the Q-PHB-PDMAEMA were tested for efficacy in killing clinically significant pathogens: the […] and Gram-negative bacteria (E. coli).

[2] = tested on: E. coli; assay: Antimicrobial test, MIC against E. coli; format: cell-based; details: Gram-negative bacteria E. coli (n = 2)
Experimental: as §1

CC[C@H](C)[C@H](NC(=O)CN)C(=O)NCC(=O)N[C@@H](C)C(=O)N[C@H](C(=O)N[C@@H](CC(C)C)C(=O)N[C@@H](CCCCN)C(=O)N[C@H](C(=O)N[C@@H](CC(C)C)C(=O)N[C@H](C(=O)N[C@H](C(=O)NCC(=O)N[C@@H](CC(C)C)C(=O)N1CCC[C@H]1C(=O)N[C@@H](C)C(=O)N[C@@H](CC(C)C)C(=O)N[C@H](C(=O)N[C@@H](CO)C(=O)N[C@@H](Cc1c[nH]c2ccccc12)C(=O)N[C@H](C(=O)N[C@@H](CCCCN)C(=O)N[C@@H](CCCNC(=N)N)C(=O)N[C@@H](CCCCN)C(=O)N[C@@H](CCCNC(=N)N)C(=O)N[C@@H](CCC(N)=O)C(=O)N[C@@H](CCC(N)=O)C(N)=O)[C@@H](C)CC)[C@@H](C)CC)[C@@H](C)O)[C@@H](C)O)C(C)C)C(C)C [Melittin]
MIC [1]: 8 µg/mL (≈ 2.81 µM) | MIC [2]: 63 µg/mL (≈ 22.1 µM)

≈ marks a conversion by molar mass, not a printed value.
